{"source": "patent US20250345378A1", "about": "(priority 2022, published 2025)", "tested_on": "304 E. coli clinical isolates", "assay_type": "cell-based, Escherichia coli", "conditions": "304-isolate panel, antibiotic combined with LBP-EC01 v.2"}
{"smiles": "CC1=C(C(=O)O)N2C(=O)[C@@H](NC(=O)[C@H](N)c3ccccc3)[C@H]2SC1", "note": "[Cephalexin]", "values": [{"measurement": "Host Range % on all Strains (n = 304), Combination: Antibiotic + LBP-EC01 v.2", "value": 85.5, "unit": "%"}]}
